Reference: US4225611A, “Novel n-substituted benzenesulfonamide, process for its preparation and medicaments containing it” (Choay S.A., priority 1977, dated 1980)

Experiment: in vivo
Settings: mouse

CCN1CCCC1CNS(=O)(=O)c1cc(Cl)c(N)cc1OC (centres unmarked) [(I), chloro-5 methoxy-2 amino-4 N-(N-ethyl methyl-2 pyrrolidino) benzenesulfonamide]
LD50 (iv): 130 mg/kg
LD50 (po): 1000 mg/kg
